Data: patent US20020160975A1, “Conserved XIAP-interaction motif in caspase-9 and Smac/DIABLO for mediating apoptosis” (Thomas Jefferson University, priority 2001, published 2002)

Key:
[1] = biological target: T1, holoenzyme containing the WT caspase-9 (Homo sapiens, UniProt P55211); assay: XIAP inhibition of procaspase-3 processing by Apaf-1-caspase-9 holoenzyme; type: biochemical; conditions: increasing amounts of XIAP; Apaf-1 20 nM
T1 construct: 6-Histidine (C); made in house; host or cells: Escherichia coli BL21 (DE3)
Experimental: (§1) Given that both processed and unprocessed caspase-9-Apaf-1 holoenzyme complexes are catalytically active, it was determined whether XIAP could inhibit them equally.

[2] = biological target: T2, holoenzyme containing the mutant caspase-9 (Homo sapiens, UniProt P55211, D315A/D330A/E306A); assay: as above; type: biochemical; conditions: increasing amounts of XIAP; Apaf-1 20 nM
T2 construct: His tag (purified on Talon resin); made in house; host or cells: bacteria (E. coli stated for the WT protein)
T2 sequence (P55211 1-416 E306A/D315A/D330A): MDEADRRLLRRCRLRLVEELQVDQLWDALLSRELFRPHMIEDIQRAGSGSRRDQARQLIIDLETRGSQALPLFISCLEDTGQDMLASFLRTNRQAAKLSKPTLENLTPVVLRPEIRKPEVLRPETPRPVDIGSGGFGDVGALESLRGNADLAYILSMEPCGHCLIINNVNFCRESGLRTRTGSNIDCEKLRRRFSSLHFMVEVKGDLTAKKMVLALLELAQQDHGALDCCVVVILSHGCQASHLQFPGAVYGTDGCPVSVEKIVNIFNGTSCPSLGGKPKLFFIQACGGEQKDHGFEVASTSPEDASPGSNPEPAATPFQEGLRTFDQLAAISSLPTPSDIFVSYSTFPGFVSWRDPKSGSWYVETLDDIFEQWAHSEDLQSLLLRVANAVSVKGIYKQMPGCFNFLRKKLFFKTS
T2 sequence (O14727 1-1248 partner): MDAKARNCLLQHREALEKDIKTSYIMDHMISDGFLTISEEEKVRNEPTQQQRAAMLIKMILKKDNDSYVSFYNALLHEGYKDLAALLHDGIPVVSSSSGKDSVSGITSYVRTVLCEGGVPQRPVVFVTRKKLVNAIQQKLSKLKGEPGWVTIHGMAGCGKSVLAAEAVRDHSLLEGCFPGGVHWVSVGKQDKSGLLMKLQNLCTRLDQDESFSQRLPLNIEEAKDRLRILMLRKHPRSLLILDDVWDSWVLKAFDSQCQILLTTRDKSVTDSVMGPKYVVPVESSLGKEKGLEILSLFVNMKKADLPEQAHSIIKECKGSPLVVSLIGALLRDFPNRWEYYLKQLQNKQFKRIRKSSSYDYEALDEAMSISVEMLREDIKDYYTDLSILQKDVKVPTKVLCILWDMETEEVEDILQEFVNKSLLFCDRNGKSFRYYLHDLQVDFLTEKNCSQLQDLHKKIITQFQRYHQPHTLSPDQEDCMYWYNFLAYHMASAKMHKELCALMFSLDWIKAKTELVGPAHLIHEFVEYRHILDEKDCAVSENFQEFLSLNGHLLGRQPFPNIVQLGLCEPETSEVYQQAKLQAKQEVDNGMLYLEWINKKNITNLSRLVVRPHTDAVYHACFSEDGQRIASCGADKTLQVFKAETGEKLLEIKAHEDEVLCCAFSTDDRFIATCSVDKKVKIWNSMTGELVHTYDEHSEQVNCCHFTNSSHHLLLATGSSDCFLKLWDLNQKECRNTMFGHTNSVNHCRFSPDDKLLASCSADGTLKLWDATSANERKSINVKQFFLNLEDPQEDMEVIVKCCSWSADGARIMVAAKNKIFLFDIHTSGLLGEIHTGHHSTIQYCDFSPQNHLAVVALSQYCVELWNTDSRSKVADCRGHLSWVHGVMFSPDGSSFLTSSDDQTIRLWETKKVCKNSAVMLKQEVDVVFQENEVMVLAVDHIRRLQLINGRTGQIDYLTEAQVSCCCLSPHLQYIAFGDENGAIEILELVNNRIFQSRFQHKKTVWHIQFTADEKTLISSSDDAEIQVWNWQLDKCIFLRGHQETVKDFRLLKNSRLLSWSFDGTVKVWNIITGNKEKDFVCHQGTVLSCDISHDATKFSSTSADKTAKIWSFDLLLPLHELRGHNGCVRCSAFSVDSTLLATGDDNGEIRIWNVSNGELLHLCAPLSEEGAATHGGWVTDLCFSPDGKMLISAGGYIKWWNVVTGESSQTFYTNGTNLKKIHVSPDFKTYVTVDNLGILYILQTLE
T2 sequence (P99999 2-105 partner limits assumed): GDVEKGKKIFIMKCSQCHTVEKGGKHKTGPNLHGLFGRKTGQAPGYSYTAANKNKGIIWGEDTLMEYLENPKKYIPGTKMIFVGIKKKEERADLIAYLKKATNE
Experimental: as §1

inhibition of processing of procaspase-3 by holoenzyme containing WT caspase-9 [1]: completely inhibited
inhibition of processing of procaspase-3 by holoenzyme containing mutant caspase-9 [2]: did not significantly inhibit
Substance: XIAP: X-linked inhibitor of apoptosis protein
